Experimental data taken from US20220119489A1, “COMPOSITIONS AND METHODS FOR TREATING MUSCULAR DYSTROPHY AND RELATED DISORDERS” (CHILDREN'S MEDICAL CENTER CORPORATION, priority 2019, published 2022).

Tests used:
CD82 (mouse) (mouse) = CD82 (mouse) (mouse) (UniProt P40237); experiment: IP with anti CD82 antibodies, mouse muscle tissue, mass spectrometry
[1] = molecular target: CD82 polypeptide (human) (human); experiment: IP with anti CD82 antibodies, human myotubes, mass spectrometry

## ACTA_MOUSE (from UniProt P62737)
CD82 (mouse) (mouse)
  Total: 2
  Unique: 2

## ACTS_MOUSE (from UniProt P68134)
CD82 (mouse) (mouse)
  Total: 2
  Unique: 2

## H2B1K_MOUSE (from UniProt Q8CGP1)
CD82 (mouse) (mouse)
  Total: 2
  Unique: 2

## euk elongation factor 2 (from UniProt P13639)
[1]
  Total: 3
  Unique: 3
